Measured values: patent EP4782453A1 (Beyang Therapeutics Co., Ltd., priority 2023, dated 2025)

The chains behind the UniProt entries cited, without tags or fusion partners. Residues count along the entry.
UniProt O00255, 1-615 isoform 1: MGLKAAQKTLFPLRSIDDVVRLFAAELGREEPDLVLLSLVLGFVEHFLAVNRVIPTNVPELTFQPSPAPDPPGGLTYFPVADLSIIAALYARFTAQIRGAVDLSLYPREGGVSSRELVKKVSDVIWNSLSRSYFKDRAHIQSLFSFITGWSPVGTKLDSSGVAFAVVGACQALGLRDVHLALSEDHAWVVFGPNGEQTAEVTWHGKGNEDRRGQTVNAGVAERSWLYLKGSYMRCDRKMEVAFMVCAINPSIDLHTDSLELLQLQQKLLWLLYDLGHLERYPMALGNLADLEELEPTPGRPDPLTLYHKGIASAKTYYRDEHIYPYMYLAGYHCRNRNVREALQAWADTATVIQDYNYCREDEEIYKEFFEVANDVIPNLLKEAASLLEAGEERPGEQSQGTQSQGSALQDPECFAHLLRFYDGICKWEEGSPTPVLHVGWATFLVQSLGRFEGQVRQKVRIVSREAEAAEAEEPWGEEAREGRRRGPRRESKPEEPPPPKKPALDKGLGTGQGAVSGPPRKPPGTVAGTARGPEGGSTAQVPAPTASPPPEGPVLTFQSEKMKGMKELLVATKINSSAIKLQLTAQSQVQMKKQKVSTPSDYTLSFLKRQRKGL

Assays:
[1] = test system: MOLM-13 (carrying MLL-AF9); assay: Inhibition of proliferation of human tumor cells (Alamar Blue, 7 days), MOLM-13; settings: read-out: MOLM-13 IC50, MOLM-13 cells (carrying MLL-AF9), method calls the value GI50
From the text: (§1) Experimental Example 2: Evaluation of Inhibitory Activity of Compounds Against Proliferation of Human Tumor Cells
(§2) • Human acute lymphoblastic leukemia cells MV-4-11, purchased from American Type Culture Collection, Catalog Number: CRL-9591; • Human acute myeloid leukemia cells MOLM-13, purchased from COBIOER BIOSCIENCES CO., LTD, Catalog Number: CBP60678; • Human acute myeloid leukemia cells KG-1a, purchased from American Type Culture Collection, Catalog Number: CCL-246.1; • Inverted Microscope, purchased from Olympus Tokyo; • Countess™ Automated Cell Counter, purchased from Invitrogen, Model: C10281; and • Multilabel Reader, purchased from Bio-Tek, Model: Synergy HT.
(§3) MV-4-11 cells were cultured in an IMDM medium containing 10% fetal bovine serum, KG-a cells were cultured in an IMDM medium containing 20% fetal bovine serum, or MOLM-13 cells were cultured in an RPMI-1640 medium containing 20% fetal bovine serum, each supplemented with 100 U·mL^-1 penicillin and 100 µg·mL^-1 streptomycin. These cells were cultured at 37°C with 5% CO2. The suspensions of individual cell lines were prepared in their respective media and seeded into 96-well plates at a density of 4,000 cells/well for MV-4-11 and MOLM-13 cells, or 3,000 cells/well for KG-1a cells. On the day of the experiment, a compound stock solution was diluted in a 3-fold or 4-fold gradient using DMSO. Each gradient-diluted stock solution was then further diluted 250-fold with a complete medium to prepare a series of working solutions at different concentrations. Subsequently, 100 µL of working solution (containing a 2-fold concentration series of the test compound) was added to each well, with duplicate wells set up for each concentration.
Seven days after compound addition (on Day 7), an Alamar Blue assay reagent (MCE, HY-111391 / CS-0040317) was added to measure the fluorescence intensity in each well. Wells containing the cells in the growth medium supplemented with 0.1% DMSO (Day 7) served as high-read control wells. The readouts from the wells containing the cells in the growth medium supplemented with 0.1% DMSO on the day of compound addition (Day 0) served as low-reading control well. GraphPad Prism software was used to calculate the concentration required to inhibit 50% of cell proliferation (GI50), which serves as a cell proliferation inhibition activity index. The GI50 (half-maximal inhibitory concentration) of the compound was determined using the following nonlinear fitting formula: 4-Parameter Logistic Model or Sigmoidal Dose-Response Model: Y = Bottom + (Top−Bottom)/(1 + 10^((LogGI50−X) × Hill Slope)), [formula] in which X indicates the logarithm of compound concentration, Y indicates an inhibition rate (% inhibition), Top indicates a readout of high-reading control well, and Bottom indicates a readout of low-reading control well, with Inhibition rate(%inhibition) = (Readout of Compound well−Readout of low−reading control well)/(Read of high−reading control well−Readout of low−reading control well) × 100%. [formula]

Menin-MLL = Menin-MLL (Homo sapiens, UniProt O00255); assay: Inhibitory activity against Menin-MLL binding (fluorescence polarization); settings: read-out: Menin-MLL IC50, 150 nM His-Menin, 15 nM FITC-MLL, 25°C for 60 min
MEIS1 gene expression [2] = assay: Inhibition of MEIS1 gene expression in human tumor cells (qRT-PCR), MOLM-13; settings: read-out: MOLM-13 MEIS1 EC50; MOLM-13 (carrying MLL-AF9); 48 hours of incubation; relative MEIS1 gene expression vs GAPDH
From the text: (§4) Experimental Example 3: Evaluation of Inhibitory Activity of Compounds Against MEISI Gene Expression in Human Tumor Cells
(§5) The effect of test samples on MEIS1 gene expression in vitro cultured human leukemia cells MV-4-11 (carrying MLL-AF4), MOLM-13 (carrying MLL-AF9), and OCI-AML3 (carrying NPM1c) was studied.
(§6) • Human acute lymphoblastic leukemia cells MV-4-11, purchased from American Type Culture Collection, Catalog Number: CRL-9591; • Human acute myeloid leukemia cells MOLM-13, purchased from COBIOER BIOSCIENCES CO., LTD, Catalog Number: CBP60678; • Human acute myeloid leukemia cells OCI-AML3, purchased from COBIOER BIOSCIENCES CO., LTD, Catalog Number: CBP60817; • MEIS1 Primer/Probe, purchased from IDT, Catalog Number: 40831613; and • GAPDH Primer/Probe, purchased from IDT, Catalog Number: 22214836.
(§7) MV-4-11 cells were cultured in an IMDM medium containing 10% fetal bovine serum, or MOLM-13 and OCI-AML3 cells were cultured in an RPMI-1640 medium containing 20% fetal bovine serum, each supplemented with 100 U·mL^-1 penicillin and 100 µg·mL^-1 streptomycin. These cells were cultured at 37°C with 5% CO2. The suspensions of individual cell lines were prepared in their respective media and seeded into 48-well plates at a density of 100,000 cells/well. On the day of the experiment, a compound stock solution was diluted in a 6-fold gradient using DMSO. Each gradient-diluted stock solution was then further diluted 250-fold with a complete medium to prepare a series of working solutions at different concentrations. Next, 250 µL of working solution (containing the complete medium with a 2-fold serial concentration of the test compound or a positive control compound, or containing a control complete medium) was added to each well. After 48 hours of incubation, cells from the 48-well plate were collected into 1 mL centrifuge tubes, centrifuged at 1000 rpm for 5 minutes, and the complete medium was removed. Cells were washed twice with 1 mL PBS and centrifuged to remove PBS. Total RNA was extracted using the RNeasy Mini Kit (250) (QIAGEN, 74106). The threshold cycle (Ct) value for gene expression was determined using the HiScript II U+ One Step qRT-PCR Probe Kit (Vazyme) (Vazyme, Q223-01), with 3 replicates per sample. The prepared reaction mixture was placed in an ABI 7500 real-time PCR instrument, and the reaction proceeded following the procedures below. [formula]
(§8) Next, for the relative MEIS1 gene expression, the concentration (EC50) that inhibits 50% of relative MEIS1 gene expression was calculated using GraphPad Prism 8 software. […]

MEIS1 gene expression [3] = assay: Inhibition of MEIS1 gene expression in human tumor cells (qRT-PCR), OCI-AML3; settings: read-out: OCI-AML3 MEIS1 EC50; OCI-AML3 (carrying NPM1c); 48 hours of incubation; relative MEIS1 gene expression vs GAPDH
From the text: as §4, §5, §6
MV-4-11 cells were cultured in an IMDM medium containing 10% fetal bovine serum, or MOLM-13 and OCI-AML3 cells were cultured in an RPMI-1640 medium containing 20% fetal bovine serum, each supplemented with 100 U·mL^-1 penicillin and 100 µg·mL^-1 streptomycin. These cells were cultured at 37°C with 5% CO2. […] The threshold cycle (Ct) value for gene expression was determined using the HiScript II U+ One Step qRT-PCR Probe Kit (Vazyme) (Vazyme, Q223-01), with 3 replicates per sample. […]

[4] = test system: MV-4-11 (carrying MLL-AF4); assay: Inhibition of proliferation of human tumor cells (Alamar Blue, 7 days), MV-4-11; settings: read-out: MV-4-11 IC50, MV-4-11 cells (carrying MLL-AF4), method calls the value GI50
From the text: as §1, §2
as §3, with “Subsequently, 100 µL of working solution (containing a 2-fold concentration series of the test compound) was added to each well, with duplicate wells set up for each concentration.” left out
Seven days after compound addition (on Day 7), an Alamar Blue assay reagent (MCE, HY-111391 / CS-0040317) was added to measure the fluorescence intensity in each well. Wells containing the cells in the growth medium supplemented with 0.1% DMSO (Day 7) served as high-read control wells. The readouts from the wells containing the cells in the growth medium supplemented with 0.1% DMSO on the day of compound addition (Day 0) served as low-reading control well. […]

MEIS1 gene expression [5] = assay: Inhibition of MEIS1 gene expression in human tumor cells (qRT-PCR), MV-4-11; settings: read-out: MV-4-11 MEISI EC50; MV-4-11 (carrying MLL-AF4); 48 hours of incubation; relative MEIS1 gene expression vs GAPDH
From the text: as §4, §5, §6, §7, §8

Row | SMILES | IC50 [1] [nM] | IC50 (Menin-MLL) [nM] | also measured
1 | CC(=O)N1CC2CCC1CN2CCCC(C(C)C)N1CC(c2cc(-c3ccc(F)cc3C(=O)N3CCOC[C@H]3C)c3c(F)nc(C)n3c2)C1 (single isomer, unassigned) [343] | 5.9 | 8.3 | 
2 | Cc1ncc2c(-c3ccc(F)cc3C(=O)N(C(C)C)C3CCC3)cc(N3CCN(C(=O)C4NC5CCC4CC5)CC3)cn12 (stereo not shown) |  | 55 | 
3 | Cc1nc(F)c2c(-c3ccc(F)cc3C(=O)N3CCOCC3C)cc(C3CN(C(CCCN4C5COCC4C5)C(C)C)C3)cn12 (stereo not shown) | 6 | 2.2 | EC50 (MEIS1 gene expression [2]): 2.1 nM; EC50 (MEIS1 gene expression [3]): 11 nM; IC50 [4]: 1.9 nM; EC50 (MEIS1 gene expression [5]): 2.9 nM
4 | Cc1ncc2c(-c3ccc(F)cc3C(=O)N3CCOCC3C)cc(C3CN(C(CCCN4CC5CCC4CO5)C(C)C)C3)cn12 (stereo not shown) | 5 | 5.3 | 
5 | Cc1nc(F)c2c(-c3ccc(F)cc3C(=O)N3CCOCC3C)cc(C3CN(C(CCCN4C5CCC4COC5)C(C)C)C3)cn12 (stereo not shown) | 4.1 | 4.4 | 
6 | CCN(C(=O)c1cc(F)ccc1-c1cc(C2CN(C(CN3CCN(S(C)(=O)=O)CC3)C(C)C)C2)cn2c(C)ncc12)C(C)C (stereo not shown) |  | 21 | 
7 | Cc1ncc2c(-c3ccc(F)cc3C(=O)N(CCO)C(C)C)cc(C3CN(C(CCCN4CC5CC4CO5)C(C)C)C3)cn12 (single isomer, unassigned) [468-1] | 19 | 1.2 | 
8 | CCN(C(=O)c1cc(F)ccc1-c1cc(C2CCN(C(=O)C3NC4CCC3CC4)C2)cn2c(C)ncc12)C(C)C (stereo not shown) |  | 57 | IC50 [4]: 68 nM
9 | Cc1nc(F)c2c(-c3ccc(F)cc3C(=O)N3CCOC[C@H]3C)cc(C3CN(CC4CCN(C(=O)C5CCOC5)CC4)C3)cn12 (stereo partly shown) | 38 | 23.5 | IC50 [4]: 19 nM
10 | Cc1ncc2c(-c3ccc(F)cc3C(=O)N3CCOCC3C)cc(N3CCN(C(=O)C4NC5CCC4CC5)CC3)cn12 (stereo not shown) |  | 144 | 
11 | Cc1ncc2c(-c3ccc(F)cc3C(=O)N(CCO)C(C)C)cc(C3CN(C(CCCN4CC5CC4CO5)C(C)C)C3)cn12 (single isomer, unassigned) [468] |  | 4 | 
12 | CC(=O)N1CC2CCC1CN2CCCC(C(C)C)N1CC(c2cc(-c3ccc(F)cc3C(=O)N3CCOC[C@H]3C)c3c(F)nc(C)n3c2)C1 (single isomer, unassigned) [342] | 5.3 | 6.2 | 
13 | Cc1nc(F)c2c(-c3ccc(F)cc3C(=O)N3CCOCC3C)cc(C3CN(C(CCCN4CC5CC4CO5)C(C)C)C3)cn12 (stereo not shown) | 6 | 2.9 | EC50 (MEIS1 gene expression [2]): 2.8 nM; EC50 (MEIS1 gene expression [5]): 7.5 nM
14 | CC(=O)N1CC2CC1CN2CCCC(C(C)C)N1CC(c2cc(-c3ccc(F)cc3C(=O)N3CCOCC3C)c3cnc(C)n3c2)C1 (stereo not shown) |  | 9 | 
15 | CCN(C(=O)c1cc(F)ccc1-c1cc(C2CN(C(CCCN3CC4CCC3CO4)C(C)C)C2)cn2c(C)ncc12)C(C)C (stereo not shown) |  | 2.6 | 
16 | CC(=O)N1CC2CCC(C1)N2CCCC(C(C)C)N1CC(c2cc(-c3ccc(F)cc3C(=O)N3CCOC[C@H]3C)c3c(F)nc(C)n3c2)C1 (stereo partly shown) |  | 4 | EC50 (MEIS1 gene expression [2]): 5.5 nM; EC50 (MEIS1 gene expression [5]): 13 nM
17 | C=C1CC2CCC1C(C(=O)N1CCN(c3cc(-c4ccc(F)cc4C(=O)N(CC)C(C)C)c4cnc(C)n4c3)CC1)N2 (stereo not shown) |  | 120 | 
18 | CCN(C(=O)c1cc(F)ccc1-c1cc(C2CN(C(CCCN3CC4CC3CO4)C(C)C)C2)cn2c(C)ncc12)C(C)C (stereo not shown) | 3.8 | 2.2 | 
19 | CC(=O)N1CC2CC1CN2CCCC(C(C)C)N1CC(c2cc(-c3ccc(F)cc3C(=O)N3CCOC[C@H]3C)c3c(F)nc(C)n3c2)C1 (stereo partly shown) |  | 5 | EC50 (MEIS1 gene expression [2]): 6.2 nM; EC50 (MEIS1 gene expression [5]): 15 nM
20 | CC(=O)N1C2CCC1CN(CCCC(C(C)C)N1CC(c3cc(-c4ccc(F)cc4C(=O)N4CCOC[C@H]4C)c4c(F)nc(C)n4c3)C1)C2 (stereo partly shown) |  | 16 | 
21 | CCN(C(=O)c1cc(F)ccc1-c1cc(C2CN(C(CCCN3CC4CC3CO4)C(C)C)C2)cc2c1cnn2C)C(C)C (stereo not shown) | 38 | 4.5 | 
